Yeast mating assay 1: variants of the scFv Ab-14

Data: MIT Lincoln Laboratory AlphaSeq set, Engelhart et al. 2022, doi:10.1038/s41597-022-01779-4, as distributed in FLAb.

Target: peptide PDVDLGDISGINAS, taken from heptad repeat 2 (HR2) of SARS-CoV-2 spike.

Ab-14 is the parent antibody, in scFv form: VH, then a (GGGGS)3 linker, then VL. The light chain is unchanged in all variants.
VH: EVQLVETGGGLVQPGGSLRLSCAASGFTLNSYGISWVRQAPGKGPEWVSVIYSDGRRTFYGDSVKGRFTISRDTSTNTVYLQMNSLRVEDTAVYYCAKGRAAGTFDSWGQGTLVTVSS
VL: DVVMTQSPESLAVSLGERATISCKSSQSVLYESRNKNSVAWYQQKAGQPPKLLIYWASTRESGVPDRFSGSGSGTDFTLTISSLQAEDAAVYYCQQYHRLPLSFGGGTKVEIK

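The starting antibody came from a phage panning campaign against this peptide. In library AAYL49, one, two or three CDR residues were substituted; doubles and triples were drawn at random. The scFvs were displayed on barcoded MATa yeast, the peptide on MATalpha yeast. Pairs that bind mate more often; barcode pairs of the diploids are counted by sequencing. Scores were corrected for input abundance and mapped to Kd with protein pairs of known affinity run in the same pool. The assay was run in three technical replicates.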

The whole VH of each variant is written out. The read-out is the apparent dissociation constant on a log10 scale (nM): the lower, the stronger. Replicates are averaged; those with no signal do not enter the mean. An entry "not detected" has no value in the source: the pair was not observed among the diploids in any replicate. This suggests poor binding but is not conclusive. As a blank, each scFv also met three strains without target: over library AAYL49, 15% of these pairings were detected, typically at 4.06 and seldom below 2.83. The control count says in how many pairings with the empty strains this scFv gave a signal.

VH | mean, log10 nM | replicates with signal | control signals
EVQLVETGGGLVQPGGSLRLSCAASGFTLNSYGQSWVRQAPGKGPEWVSVIYSDGRPTFYGDSVKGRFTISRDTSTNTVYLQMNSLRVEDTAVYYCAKGRYAGTFDSWGQGTLVTVSS | not detected | 0/3 | 0/9
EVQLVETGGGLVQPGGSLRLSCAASRFTLNSYGISWVRQAPGKGPEWVSVIYSDGRRTFYTDSVKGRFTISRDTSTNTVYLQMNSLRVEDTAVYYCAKGRAAGSFDSWGQGTLVTVSS | 1.63 | 3/3 | 0/9
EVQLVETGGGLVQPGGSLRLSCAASGFTLHSYGISWVRQAPGKGPEWVSVIYSDGRRTFYFDSVKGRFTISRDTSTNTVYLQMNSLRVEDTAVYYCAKGRAAGTFDSWGQGTLVTVSS | 4.71 | 1/3 | 2/9
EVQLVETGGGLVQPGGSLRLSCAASGFTLNSIGISWVRQAPGKGPEWVSVCYTDGRRTFYGDSVKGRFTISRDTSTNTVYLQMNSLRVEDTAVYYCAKGRAAGTFDSWGQGTLVTVSS | not detected | 0/3 | 0/9
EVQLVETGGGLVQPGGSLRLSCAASGFTLNSYGISWVRQAPGKGPEWVSVIYSDGRRTFYGDSLKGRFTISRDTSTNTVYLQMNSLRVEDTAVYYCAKFRAPGTFDSWGQGTLVTVSS | 3.47 | 1/3 | 0/9
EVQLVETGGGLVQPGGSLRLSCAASGFTLNSYLISWVRQAPGKGPEWVSVIYSDGRRTFYRDSVKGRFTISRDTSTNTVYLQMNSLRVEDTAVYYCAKGRAAGGFDSWGQGTLVTVSS | not detected | 0/3 | 0/9
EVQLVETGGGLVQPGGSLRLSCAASGFTLNSYGISWVRQAPGKGPEWVSVIYSDGRRTFYGDPVKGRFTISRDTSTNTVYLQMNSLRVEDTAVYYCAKGQAACTFDSWGQGTLVTVSS | not detected | 0/3 | 0/9
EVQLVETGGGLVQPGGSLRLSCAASGFTQNSYGISWVRQAPGKGPEWVSVIYSDGKRTFYGDDVKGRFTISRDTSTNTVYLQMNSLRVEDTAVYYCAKGRAAGTFDSWGQGTLVTVSS | 3.73 | 1/3 | 0/9
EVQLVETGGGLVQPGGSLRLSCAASGFTLNFYGISWVRQAPGKGPEWVSVIYSDGRRTFYGDSVKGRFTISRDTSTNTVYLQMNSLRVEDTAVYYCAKGLAAGGFDSWGQGTLVTVSS | 3.57 | 1/3 | 0/9

Continued, with the values leading:

mean, log10 nM | replicates with signal | control signals | VH
4.13 | 1/3 | 3/9 | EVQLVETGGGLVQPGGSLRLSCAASGFTLNSYGISWVRQAPGKGPEWVSVIYSDGRRTFYWQSVKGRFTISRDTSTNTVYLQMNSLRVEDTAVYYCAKGRALGTFDSWGQGTLVTVSS
3.93 | 1/3 | 2/9 | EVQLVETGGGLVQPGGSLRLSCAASGFTLDSYGISWVRQAPGKGPEWVSVIYSDWRRTKYGDSVKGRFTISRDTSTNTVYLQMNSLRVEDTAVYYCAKGRAAGTFDSWGQGTLVTVSS
not detected | 0/3 | 1/9 | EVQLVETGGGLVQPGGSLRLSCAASGFQLQSYGISWVRQAPGKGPEWVSDIYSDGRRTFYGDSVKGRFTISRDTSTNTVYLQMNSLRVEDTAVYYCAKGRAAGTFDSWGQGTLVTVSS
not detected | 0/3 | 2/9 | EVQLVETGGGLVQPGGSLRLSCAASGFTLNSYGISWVRQAPGKGPEWVSVGYSDGRRLFYGDSVKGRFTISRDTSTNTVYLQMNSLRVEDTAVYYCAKGRAAGAFDSWGQGTLVTVSS
4.65 | 1/3 | 1/9 | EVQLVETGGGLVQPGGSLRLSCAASGFTLNSYRISWVRQAPGKGPEWVSVIYSDGRRTFYGESVKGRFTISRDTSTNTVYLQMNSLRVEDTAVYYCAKGLAAGTFDSWGQGTLVTVSS
not detected | 0/3 | 1/9 | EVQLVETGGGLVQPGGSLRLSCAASGFTLNSYGYSWVRQAPGKGPEWVSVIYSDGRRAFKGDSVKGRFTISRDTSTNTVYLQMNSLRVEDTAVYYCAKGRAAGTFDSWGQGTLVTVSS
3.89 | 1/3 | 1/9 | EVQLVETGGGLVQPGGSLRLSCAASGFTLNSYGISWVRQAPGKGPEWVSVIYSDGRRTFYGDSCKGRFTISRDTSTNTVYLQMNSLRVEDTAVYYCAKPRAVGTFDSWGQGTLVTVSS
not detected | 0/3 | 1/9 | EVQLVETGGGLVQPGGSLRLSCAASGFKLNSIGISWVRQAPGKGPEWVSVIYSDGRRTFYGDIVKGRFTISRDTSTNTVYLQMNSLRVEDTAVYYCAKGRAAGTFDSWGQGTLVTVSS
not detected | 0/3 | 3/9 | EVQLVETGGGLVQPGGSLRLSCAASGFTLNSYGMQWVRQAPGKGPEWVSVIYSDGRRTFYGDSCKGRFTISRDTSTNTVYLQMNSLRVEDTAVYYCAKGRAAGTFDSWGQGTLVTVSS